# High-throughput results as filed in PubChem BioAssay.
# miR-21 reporter: miR-21 reporter, rising signal. HeLa miR-21 FLuc reporter, luciferase, 48 h. Potency, µM (titrated, usually from 38.3 µM), without a hit: at the top dose reporter change, positive = more light. 340,000 tested, under 10 active. AID 2288; active = well fitted rising curve with a large enough effect; inconclusive = small, poorly fitted or top-dose-only effect; inactive = no such curve, though single readings can be large or run the other way;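 also: % of control where 0% means no effect; miR-21 action dims this reporter so a rising signal means less miR-21 action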
#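 Compounds were titrated across several concentrations (up to approximately 40 uM) and incubated 48 hours with HeLa miR-21-FLuc reporter cells (miR-21 target sequence downstream of FLuc, endogenous miR-21). Readout was firefly luciferase luminescence after lytic detection reagent.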
# gsp ag: agonists of gsp mutant (McCune-Albright syndrome) | Potency, µM (doses to about 76.9 µM), for the others: top-dose activation (cAMP increase), usual class: activators | gsp mutant cells, cAMP HTRF, 30 min | 340,000 compounds, 0.13% hits; active = well fitted activation curve with a large enough effect; inconclusive = small, poorly fitted or top-dose-only effect, or another doubt; inactive = no such curve, though single readings can be large or run the other way; cell line not stated here;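 note: phosphodiesterase inhibitor Ro 20-1724 added with compounds to block cAMP breakdown; potency is the fitted concentration of half-maximal effect; nearly all actives have a fitted effect of over 60% in size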
#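 Cells stably selected in G418 were plated at 2000/well, grown 16-24 hr, then given compounds in DMSO with the PDE inhibitor […] (300 uM solution added) for 30 min at 37C; cAMP was read by HTRF.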
# Luc counter: blocks Kinase-Glo luciferase, a counter-screen artifact; Kinase-Glo luciferase, ATP luminescence, 8 min; Potency, µM (doses to about 38.3 µM), inactives show at the highest dose activity change, negative = inhibition, actives largely listed as inhibitors; 200,000 compounds, 0.28% hits; AID 1379; note: potency is the fitted concentration of half-maximal effect; % is set by controls: 0 for no effect and ±100 for the full control effect; nearly all actives have a fitted effect of over 60% in size
#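 Substrate mix (final 50 mM imidazole pH 7.2, 50 mM KCl, 7 mM MgCl2, 10 uM ATP, 0.01% Tween 20, 0.05% BSA) plus pin-tool compound, then Kinase-Glo detection mix; 8 min ambient, luminescence read.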
# RXFP1 antagonist: blocks the human relaxin receptor RXFP1. Q9HBX9. HEK293-RXFP1, relaxin-stimulated cAMP HTRF, 30 min; hits give low values. activity change, negative = inhibition, % at 57.5 µM. 350,000 compounds, 0.59% hits;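 active = activity change of -60% or lower, but not beyond a set lower limit; inconclusive = change between -60% and -40%, or beyond the set limit; inactive = change above -40%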; note: % is set by controls: 0 for no effect and ±100 for the full control effect
# gsp antag: antagonizes gsp, the McCune-Albright syndrome mutation; gsp-mutant cells, cAMP HTRF, 30 min; Potency, µM (top dose mostly 76.9 µM), for inactives: at the highest dose activity change, negative = inhibition, usual class: inhibitors; 340,000 compounds, 0.4% hits; calls by dose curve; cell line not stated here;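 note: intracellular cAMP measured with PDE inhibitor Ro 20-1724 present during compound exposure; potency is the fitted concentration of half-maximal effect; % is set by controls: 0 for no effect and ±100 for the full control effect; nearly all actives have a fitted effect of over 65% in size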
#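 Cells in G418 medium, seeded 16-24 h, 37C; buffer exchange to DPBS + 1 mM CaCl2, 0.5 mM MgCl2, 0.05% BSA; cpds in DMSO + […] (300 uM stock), 30 min 37C; HTRF cAMP detection.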
# RXFP1 ag: RXFP1 (human) receptor agonism | HEK293T-RXFP1 cAMP TR-FRET, 30 min; response scale: percent of porcine relaxin response, buffer zero | Potency, µM (top dose mostly 57.5 µM), for the others: top-dose activation, usual class: activators | 370,000 compounds, 0.3% hits | Q9HBX9; note: potency is the fitted concentration of half-maximal effect; % is set by controls: 0 for no effect and ±100 for the full control effect; nearly all actives have a fitted effect of over 60% in size
#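 HEK293T cells stably expressing RXFP1 were pretreated with the PDE4 inhibitor Ro 20174, exposed to compounds for 30 min at 37C, lysed, and cAMP was read by TR-FRET. Data normalized to buffer (basal) and 29 nM porcine relaxin (100%).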
# Numbers without * were called inactive; ? = inconclusive; nt = no result; [ ] = dose if it differs, or a comment. This is a sample that favours compounds with a hit; in the whole collection about 1% have one here. Unless noted, calls come from the whole dose curve; as a rule, active = well fitted curve in the direction sought with a large enough effect; inconclusive = small, poorly fitted or top-dose-only effect, or another doubt; inactive = no such curve, though single readings can be large; an effect the other way counts as inactive or inconclusive.
SMILES	miR-21 reporter	gsp ag	Luc counter	RXFP1 antagonist	gsp antag	RXFP1 ag
CN1CCN(CCOC2Cc3ccccc3Sc3ccc(Cl)cc32)CC1 (stereo not drawn)	-2%	3%	1%	-70*	-1%	0%
OCCN1CCN(C2Cc3cc(Cl)ccc3Sc3ccc(Cl)cc32)CC1 (stereo not drawn) (tested in a mixture with another compound)	7%	4%	-4%	?	28%	1%
N#CC(C#N)=C1C=CC=CN1/C(=C\c1ccccc1)C(=O)c1cccs1	-33%	-39%	-1%	0	-3%	0%
N#CC(C#N)=C1C=CC=CN1/C(=C\c1ccccc1Cl)C(=O)c1ccccc1	?	4%	3%	-82*	10%	-1%
O=C1CC(NCc2ccc3c(c2)OCO3)C(=O)N1Cc1ccc2c(c1)OCO2 (stereo not drawn)	-3%	-6%	-5%	2	28µM*	-3%
O=C(COC(=O)c1ccco1)Nc1nc2c(F)c(F)c(F)cc2s1	-5%	4%	nt	-16	7%	4%
O=C(COC(=O)c1ccc(NS(=O)(=O)c2cccs2)cc1)Nc1nc2c(F)c(F)c(F)cc2s1	-14%	13%[15.4 µM]	2%	-62*	-16%	3%
Cc1ccc(C)n1N1C(=O)/C(=C\c2ccc(Cl)cc2)SC1=S	-6%	10%	-7%	-35	?	0%
CC(=O)N(C(C)=O)N1C(=O)/C(=C/c2ccc(Cl)cc2)SC1=S	13%	-15%[15.4 µM]	-2%	-109*	-6%	1%
c1ccc(Cn2c(-c3ccccc3)nc3nc4ccccc4nc32)cc1	-1%	27%	-2%	-12	-17%	5%
O=[N+]([O-])c1cc(-c2nc3nc4ccccc4nc3n2CCc2ccccc2)cc([N+](=O)[O-])c1	-1%	-1%[15.4 µM]	-1%	-8	35µM*	-2%
Cc1cc(C)c(NC(=O)C2CCN(c3nnc(C)c4c(C)n(-c5ccccc5)nc34)CC2)c(C)c1	0%	nt	nt	-2	nt	4%
CC(C)c1cnc2c(c1SCC(=O)NCc1ccccc1)c(=O)n(C)c(=O)n2C	-5%	nt	nt	-1	nt	0%
COc1ccc(N2CCN(C(=O)CCCn3c(=S)[nH]c4cc5c(cc4c3=O)OCO5)CC2)cc1	1%	?	2%	-69*	-11%	0%
Cc1ccc(C)c(N2CCN(C(=O)CCn3c(=S)[nH]c4cc5c(cc4c3=O)OCO5)CC2)c1	-3%	?	0%	-68*	7%	1%

# By substructure: the entries above with fluorine
SMILES	miR-21 reporter	gsp ag	Luc counter	RXFP1 antagonist	gsp antag	RXFP1 ag
O=C(COC(=O)c1ccco1)Nc1nc2c(F)c(F)c(F)cc2s1	-5%	4%	nt	-16	7%	4%
O=C(COC(=O)c1ccc(NS(=O)(=O)c2cccs2)cc1)Nc1nc2c(F)c(F)c(F)cc2s1	-14%	13%[15.4 µM]	2%	-62*	-16%	3%

# More entries
SMILES	miR-21 reporter	gsp ag	Luc counter	RXFP1 antagonist	gsp antag	RXFP1 ag
O=C(CCCn1c(=S)[nH]c2cc3c(cc2c1=O)OCO3)N1CCN(c2ccccn2)CC1	-5%	-11%	-2%	?	-10%	-1%
O=C(CCCn1c(=S)[nH]c2ccccc2c1=O)N1CCN(c2cccc(Cl)c2)CC1	-2%	25%	1%	-89*	9%	1%
COc1ccc(CNC(=O)CCCn2c(=S)[nH]c3cc4c(cc3c2=O)OCO4)cc1	-1%	?	nt	?	12%	?
O=C(CCCn1c(=O)[nH]c2ccc(Br)cc2c1=O)N1CCN(c2cccc(Cl)c2)CC1	?	nt	nt	nt	nt	1%
COc1cccc(N2CCN(C(=O)CCCCCNc3nc(=S)[nH]c4ccccc34)CC2)c1	?	1%[15.4 µM]	3%	-90*	?	4%
CCCSS/C(CCO)=C(\C)N(C=O)Cc1cnc(C)nc1N	nt	nt	nt	9	nt	nt
Cc1ccc(CCNC(=O)CCn2nc(-c3ccc(Cl)cc3)ccc2=O)cc1	-1%	nt	nt	nt	nt	4%
COc1cc2nc(SCC(=O)Nc3cccc(C)c3)n3nc(CCn4c(C)nc5ccccc54)nc3c2cc1OC	0%	nt	nt	-4	nt	18µM*
COc1cc2c(cc1OC)C1O[C@](CCCCN3C(=O)c4ccccc4C3=O)(C2)Oc2cc(C)n(Cc3ccccc3)c(=O)c21	0%[7.66 µM]	nt	nt	nt	nt	3%[11.5 µM]
O=C(CSc1nnc(CNC(=O)c2ccco2)o1)Nc1ccc(OC(F)(F)F)cc1	-1%	-1%	nt	-110*	1%	2%
O=C(CSc1nnc(CNC(=O)c2ccco2)o1)Nc1ccc(F)cc1	1%	?	nt	-4	13%	0%
O=C(COc1ccc(F)cc1)Nc1ccccc1C(=O)OCc1cc(=O)n2nc(C3CC3)sc2n1	-11%	nt	nt	-5	nt	20%
CCOC(=O)C1=C(CS(=O)(=O)c2cccc(C(F)(F)F)c2)NC(=O)NC1c1cccc(OC)c1 (stereo not drawn)	11%	nt	nt	nt	nt	-2%
O=C(N/N=C/c1cn(-c2cccs2)nc1-c1ccccc1)c1ccccc1O	?	-8%	?	-88*	28µM*	2%
O=C(N/N=C/c1cn(-c2cccs2)nc1-c1ccccc1)c1ccccc1Br	-16%	11%	1%	3	-28%	1%

# Complete entries, looked up by structure. Order of values: miR-21 reporter, gsp ag, Luc counter, RXFP1 antagonist, gsp antag, RXFP1 ag
# COc1ccc(CNC(=O)CCCn2c(=S)[nH]c3cc4c(cc3c2=O)OCO4)cc1 as listed: -1%, ?, nt, ?, 12%, ?
# O=C(CCCn1c(=S)[nH]c2ccccc2c1=O)N1CCN(c2cccc(Cl)c2)CC1 as listed: -2%, 25%, 1%, -89*, 9%, 1%

# (listing goes on)
# Assay codes – A = miR-21 reporter; B = gsp ag; C = Luc counter; D = RXFP1 antagonist; E = gsp antag; F = RXFP1 ag
> C[C@]12CCC(=O)C=C1[C@@H]1C[C@@H]1[C@H]1[C@@H]3[C@@H]4C[C@@H]4[C@@]4(CCC(=O)O4)[C@@]3(C)CC[C@@H]12
  A: nt	B: nt	C: nt	D: -25	E: nt	F: nt

> O=C(NCc1n[nH]c(=S)n1-c1ccc(Cl)c(Cl)c1)c1ccc(S(=O)(=O)N2CCCCC2)cc1
  A: -9%	B: -9%	C: nt	D: -60*	E: 1%	F: 1%

> CCOC(=O)C(C(=O)c1ccccc1)[C@H](CCc1ccccc1)NC(=O)OC (stereo partly drawn)
  A: nt	B: nt	C: 0%	D: nt	E: nt	F: nt

> COc1cccc(/C=c2\s/c(=C\C(=O)C(C)(C)C)[nH]c2=O)c1
  A: -1%	B: 3%[15.4 µM]	C: 0%	D: -91*	E: -11%	F: 0%

> Cc1cccc(-n2c3nc(=O)[nH]c(=O)c-3cc3ccc(Cl)cc32)c1C
  A: 2%	B: nt	C: nt	D: nt	E: nt	F: -2%

> Cc1ccc(S(=O)(=O)c2cn(C)c3cc(N4CCCC(C)C4)c(F)cc3c2=O)c(C)c1 (stereo not drawn)
  A: 10%	B: nt	C: nt	D: -24	E: nt	F: 2%

> Cc1sc2ncn(CC(=O)N3CCN(c4cccc(Cl)c4)CC3)c(=O)c2c1S(=O)(=O)N1CCN(c2ncccn2)CC1
  A: 4%	B: nt	C: nt	D: nt	E: nt	F: 3%

> Cc1nc(OCC(C)C)c2sc3nc4c(cc3c2n1)COC(C)(C)C4
  A: -45%	B: 22%[15.4 µM]	C: nt	D: -103*	E: 4%	F: 1%

> COc1nc(C)nc2c1sc1nc3c(cc12)COC(C)(C)C3
  A: -47%	B: 0%	C: 9%	D: 6	E: 4%	F: 4%

> CN1C(CSCC(F)(F)F)Nc2cc(Cl)c(S(N)(=O)=O)cc2S1(=O)=O (stereo not drawn)
  A: nt	B: nt	C: nt	D: -8	E: nt	F: nt

> CCN(CC)c1nc(-c2nn[nH]n2)nc(N(CC)CC)n1
  A: -14%	B: ?	C: -1%	D: 0	E: 40µM*	F: 3%

> CCc1ccc2nc(SCC(=O)Nc3ccccc3N3CCOCC3)c(C#N)cc2c1
  A: -2%	B: 1%[15.4 µM]	C: nt	D: -1	E: -8%	F: 0%
